Ab-95 light chain CDR variants: yeast mating affinities

Values reported by Engelhart et al. 2022, doi:10.1038/s41597-022-01779-4 (FLAb copy).

The target is the same throughout: PDVDLGDISGINAS, from the HR2 region of SARS-CoV-2 spike.

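The parent was found by panning a naive human phage display library on the peptide. Library AAYL52 holds single substitutions and randomly drawn double and triple substitutions in the CDRs. The scFvs were displayed on barcoded MATa yeast, the peptide on MATalpha yeast. Binding brings cells together so that they mate, and sequencing counts the barcode pairs among the diploids. The ratio of observed to expected reads was calibrated, replicate by replicate, on BCL2-family standards whose Kd was known from biolayer interferometry. Each pool was mated in three replicate cultures.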

Parent: Ab-95, a human scFv built as VH, the linker GGGGSGGGGSGGGGS, VL. Only the CDRs of the light chain vary.
VH: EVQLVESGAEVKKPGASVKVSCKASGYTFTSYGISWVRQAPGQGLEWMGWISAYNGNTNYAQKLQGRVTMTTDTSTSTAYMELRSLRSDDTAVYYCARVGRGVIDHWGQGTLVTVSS
VL: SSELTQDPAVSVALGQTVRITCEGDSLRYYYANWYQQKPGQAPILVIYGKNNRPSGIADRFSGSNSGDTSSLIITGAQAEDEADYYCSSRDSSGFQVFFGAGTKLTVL

Each variant is given by its three light chain CDRs, as the data file delimits them; those of the parent are EGDSLRYYYAN, GKNNRPS, SSRDSSGFQVF.
Scale: log10 of Kd in nM, estimated from mating counts; low values are strong binders.
A mean of the replicates is given; it leaves out those without a signal.
"n.d." means that the variant was in the library but no mating with the target was seen in that replicate; the authors take this as a sign of poor binding, and no number exists.
Three control strains display no target. For library AAYL52, 28% of the pairings with them gave a signal, with a median of 3.91 and one signal in twenty below 2.90, so weak values seen in few replicates may be background. Also given: how often the same scFv was detected with the empty control strains, with their mean in brackets.
Parent in this assay: reference entry 2.31, copy in this library 2.25.

CDR-L1	CDR-L2	CDR-L3	log10 Kd, replicates	mean, log10 nM	empty controls
EMDSLRYYYAN	GKNNRPS	WSRVSSGFQVF	3.59 3.91 4.33	3.94	4 of 9 (3.29)
EGDHTRYYYAN	GKNNRNS	SSRDSSGFQVF	3.60 4.30 n.d.	3.95	1 of 9 (3.20)
EGDSLRYYYAL	GVNNRPS	YSRDSSGFQVF	n.d. n.d. n.d.	n.d.	0 of 9
EGDSLRYYYAN	GKNNQPQ	SSRDSSGFPVF	5.29 3.88 4.25	4.47	3 of 9 (3.72)
EGDSLRYYSAN	GKNPRPS	SSRVSSGFQVF	5.96 n.d. n.d.	5.96	2 of 9 (3.99)
KGVSLRYYYAN	GKNNRPS	MSRDSSGFQVF	1.72 1.88 1.02	1.54	3 of 9 (3.82)
EGDSLRHYYHN	GKNNRPS	SSRDSSGFLVF	3.09 2.64 2.62	2.79	2 of 9 (3.45)
EGDSLRYYYAN	GINNRIS	SSRDSSWFQVF	4.05 n.d. n.d.	4.05	0 of 9
EGDSLRYYKAG	GKNNFPS	SSRDSSGFQVF	n.d. 4.90 3.56	4.23	4 of 9 (3.63)
EGDSLRYSYAM	GKNNRPS	SSRDSSGFTVF	2.43 2.56 2.75	2.58	1 of 9 (2.60)
EMDSPRLYYAN	GKNNRPS	SSRDSSGFQVF	3.36 3.27 3.27	3.30	2 of 9 (3.89)
EGDSWRYHYAN	GKNNRPS	DSRDSSGFQVF	4.10 2.95 4.40	3.81	4 of 9 (3.79)
EGDSQRYAYAN	GKNNRPS	SSRPSSGFQVF	3.28 2.77 2.62	2.89	4 of 9 (3.71)
EGDSQRVYYAN	GKNNRPS	SSRDSSGFQDF	3.12 4.56 4.59	4.09	5 of 9 (4.83)
EGDSLRYYTAN	GKNNRPS	SSDDSSGFQVF	2.65 2.14 1.58	2.12	0 of 9
EGCSLRYYYAN	GENNRPS	SCRDSSGFQVF	1.80 1.56 1.21	1.52	2 of 9 (4.02)
EDDPLRYYYEN	GKNNRPS	SSRDSSGFQVF	n.d. 3.64 n.d.	3.64	3 of 9 (4.04)
GGDRDRYYYAN	GKNNRPS	SSRDSSGFQVF	2.25 2.85 3.13	2.74	3 of 9 (4.56)
EGDSLRYYYAN	GKNNRPS	SWLDSSGFTVF	2.71 2.66 3.03	2.80	2 of 9 (3.67)
EGDDLRYYYAN	DKNNRPR	SSRDSSGFQVF	n.d. n.d. n.d.	n.d.	1 of 9 (3.41)
EGDSLRKYYAN	GANNRPK	SSRDSSGFQVF	2.60 2.30 2.32	2.41	2 of 9 (3.42)
HGDSLRYYYAN	GKNNRPS	SSHDNSGFQVF	n.d. n.d. n.d.	n.d.	0 of 9
KGDSLRYYYAN	GKNTRPS	SSRDSSGFKVF	2.26 2.00 1.79	2.02	2 of 9 (4.00)
EGDSLRYCYAN	GKNNRPS	SSRCSAGFQVF	3.73 3.71 4.59	4.01	5 of 9 (3.88)
EGDSLRYYYAN	GKNNRPS	SSRDSQCFYVF	4.74 4.35 n.d.	4.54	4 of 9 (3.86)
EGDSLRYYYAN	DKNNKPS	SSRWSSGFQVF	n.d. n.d. n.d.	n.d.	5 of 9 (4.75)
EGDSLRYYYSN	GENNRPS	SVRDSSGFQVF	2.14 2.08 1.91	2.04	1 of 9 (5.59)
EGDSLPYYYAN	GKNHRPS	SKRDSSGFQVF	n.d. 4.66 n.d.	4.66	1 of 9 (3.99)
EGDSLRYYYAN	GKNNRRS	SSRDSSGFQMF	3.69 n.d. n.d.	3.69	1 of 9 (4.18)
EGDSSRYYYAN	GKNNRPM	SVRDSSGFQVF	3.04 3.22 3.05	3.10	4 of 9 (3.91)
EGDSMRYMYAN	GKNNRPS	SSNDSSGFQVF	3.25 3.38 4.06	3.56	2 of 9 (3.67)
EPDSLRYYYAN	GKNNRPF	SSRDNSGFQVF	5.06 n.d. 3.71	4.38	4 of 9 (3.88)
EGDSLRYYYAN	GKNNRCC	SSRDTSGFQVF	3.04 3.85 3.86	3.58	0 of 9
EGDSLRYYYAN	GYVNRPS	SSRDSSGFQVF	4.23 3.63 n.d.	3.93	4 of 9 (4.34)
EGDALRYYYAN	GKINRPS	SSRSSSGFQVF	5.02 n.d. 4.54	4.78	5 of 9 (3.72)
EGDSARYYYAN	GKNQRPS	RSRDSSGFQVF	4.98 n.d. 3.55	4.27	2 of 9 (3.36)
EGDSLRYYYAN	GKNCRPS	SSRPSSCFQVF	3.26 4.19 n.d.	3.72	4 of 9 (4.26)
EGDPLRYYYAN	GKNNTGS	SSRDSSGFQVF	2.47 3.26 2.29	2.68	2 of 9 (4.37)
EGDSLRYYYAN	GGNNRPS	SSRIGSGFQVF	3.43 3.04 n.d.	3.23	1 of 9 (3.78)
EGDSLRYYYAN	GGNNRFS	SSRDSSGFQAF	n.d. 4.66 n.d.	4.66	0 of 9
EGDSLRPYYAN	GPNNRPS	SSRDSSGFQVQ	2.34 2.41 3.07	2.61	2 of 9 (4.67)
HGDRLRYYYAG	GKNNRPS	SSRDSSGFQVF	2.34 2.11 1.68	2.04	5 of 9 (3.81)
EGDSLRYYYAR	GKNNRPS	SIRDSSGFCVF	n.d. n.d. n.d.	n.d.	0 of 9
EGDSLRYYYAN	GINNRPS	SSRDSSGWQVY	3.74 n.d. n.d.	3.74	2 of 9 (4.10)
EADSLRYPNAN	GKNNRPS	SSRDSSGFQVF	0.88 0.90 0.28	0.68	2 of 9 (3.65)

Top 6 of the variants detected in all replicates, tightest first:

CDR-L1	CDR-L2	CDR-L3	log10 Kd, replicates	mean, log10 nM	empty controls
EADSLRYPNAN	GKNNRPS	SSRDSSGFQVF	0.88 0.90 0.28	0.68	2 of 9 (3.65)
EGCSLRYYYAN	GENNRPS	SCRDSSGFQVF	1.80 1.56 1.21	1.52	2 of 9 (4.02)
KGVSLRYYYAN	GKNNRPS	MSRDSSGFQVF	1.72 1.88 1.02	1.54	3 of 9 (3.82)
KGDSLRYYYAN	GKNTRPS	SSRDSSGFKVF	2.26 2.00 1.79	2.02	2 of 9 (4.00)
EGDSLRYYYSN	GENNRPS	SVRDSSGFQVF	2.14 2.08 1.91	2.04	1 of 9 (5.59)
HGDRLRYYYAG	GKNNRPS	SSRDSSGFQVF	2.34 2.11 1.68	2.04	5 of 9 (3.81)